Values quoted from earlier work, collected in patent US10500232B2, “Small molecule cellular reprogramming to generate neuronal cells” (The J. David Gladstone Institutes, a testamentary trust …, priority 2013, dated 2019).

Protein sequences, listed by entry. Tags and fused reporters are not part of them.
UniProt P0DMS8, whole entry: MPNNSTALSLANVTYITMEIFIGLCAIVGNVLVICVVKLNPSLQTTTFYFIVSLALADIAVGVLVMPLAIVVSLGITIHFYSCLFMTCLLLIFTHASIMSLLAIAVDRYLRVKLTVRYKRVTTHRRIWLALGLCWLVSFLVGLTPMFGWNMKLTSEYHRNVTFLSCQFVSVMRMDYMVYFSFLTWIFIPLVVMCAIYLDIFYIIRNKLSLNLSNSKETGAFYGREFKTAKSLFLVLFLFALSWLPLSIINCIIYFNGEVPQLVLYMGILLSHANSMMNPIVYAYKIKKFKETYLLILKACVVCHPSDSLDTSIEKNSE

Biological target: human A3 adenosine receptors (Homo sapiens, UniProt P0DMS8)
Details: cited from earlier work

Structure (SMILES)	Ki [nM]
C[C@@H](Cc1ccccc1)Nc1ncnc2c1ncn2[C@@H]1O[C@H](CO)[C@@H](O)[C@H]1O [(S)-PIA, (2R,3S,4R,5R)-2-(hydroxymethyl)-5-[6-[[(2S)-1-phenylpropan-2-yl]amino]purin-9-yl]oxolane-3,4-diol]	~240
CC(Cc1ccccc1)Nc1ncnc2c1ncn2C1OC(CO)C(O)C1O (single isomer, unassigned; (-)) [(R)-PIA, (−)-N6-(2-Phenylisopropyl)adenosine]	~1.2
